Reference: patent US5118392A, “Separation of trichloroethylene from a butyl alcohol by extractive distillation” (priority 1991, dated 1992)

Columns and labels:
[1] = Vapor-liquid equilibrium still, t-butanol-trichloroethylene azeotrope with extractive distillation agent; type: physicochemical; conditions: trichloroethylene from t-butanol, Table 10
Source text: The data in Tables 2, 3, 5, 7, 8, 10 and 11 was obtained in a vapor-liquid equilibrium still. In every case, the starting mixture was the trichloroethylene-butanol azeotrope. The relative volatilities are listed for each of the agents.
Seventy grams of the t-butanol-trichloroethylene azeotrope and 30 grams of n-butyl acetate were charged to the vapor-liquid equilibrium still and refluxed for fourteen hours.

[2] = Vapor-liquid equilibrium still, trichloroethylene-n-butanol azeotrope with extractive distillation agent; type: physicochemical; conditions: trichloroethylene from n-butanol, Table 2

Substance | Relative Volatility [1] | Relative Volatility [2]
3-Ethoxy propionate | 1.5 | –
Methyl amyl alcohol | – | 1.7
